Reference: patent US6375634B1, “APPARATUS AND METHOD TO ENCAPSULATE, KILL AND REMOVE MALIGNANCIES, INCLUDING SELECTIVELY INCREASING ABSORPTION OF X-RAYS AND INCREASING FREE-RADICAL DAMAGE TO RESIDUAL TUMORS TARGETED BY IONIZING AND NON-IONIZING RADIATION THERAPY” (Oncology Innovations, Inc., priority 1997, dated 2002)

Settings: in vivo

Question: For iron dextran, which “therapeutic to toxic ratio” value is on record?
Answer: The value was 10 to 1.
